Protein sequences, listed by entry. Tags and fused reporters are not part of them. Residues count along the entry.
UniProt P07333, 20-972 limits assumed: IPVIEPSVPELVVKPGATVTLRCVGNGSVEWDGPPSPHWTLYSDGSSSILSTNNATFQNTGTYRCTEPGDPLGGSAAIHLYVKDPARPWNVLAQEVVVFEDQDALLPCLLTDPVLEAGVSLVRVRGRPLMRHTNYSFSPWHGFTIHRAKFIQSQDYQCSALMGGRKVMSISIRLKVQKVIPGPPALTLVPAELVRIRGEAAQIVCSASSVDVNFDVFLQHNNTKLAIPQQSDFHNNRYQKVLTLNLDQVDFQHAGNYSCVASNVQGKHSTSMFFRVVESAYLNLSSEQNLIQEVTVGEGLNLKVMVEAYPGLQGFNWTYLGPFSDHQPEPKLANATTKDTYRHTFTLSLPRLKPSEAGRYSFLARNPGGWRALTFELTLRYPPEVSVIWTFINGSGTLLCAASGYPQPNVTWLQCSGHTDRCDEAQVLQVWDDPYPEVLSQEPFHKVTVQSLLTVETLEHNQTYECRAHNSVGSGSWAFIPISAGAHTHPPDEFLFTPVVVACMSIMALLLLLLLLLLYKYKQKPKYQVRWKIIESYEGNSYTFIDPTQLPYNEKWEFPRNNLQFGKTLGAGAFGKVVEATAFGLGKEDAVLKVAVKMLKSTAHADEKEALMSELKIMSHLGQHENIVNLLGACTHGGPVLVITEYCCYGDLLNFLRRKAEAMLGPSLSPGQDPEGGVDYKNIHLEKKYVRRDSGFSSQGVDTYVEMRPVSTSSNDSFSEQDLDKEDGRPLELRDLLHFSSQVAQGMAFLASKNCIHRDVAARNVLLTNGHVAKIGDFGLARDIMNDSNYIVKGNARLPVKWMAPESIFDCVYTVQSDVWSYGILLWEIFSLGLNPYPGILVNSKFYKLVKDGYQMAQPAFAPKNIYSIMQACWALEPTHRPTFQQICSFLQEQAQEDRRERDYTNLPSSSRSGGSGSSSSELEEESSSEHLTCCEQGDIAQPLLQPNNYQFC
UniProt P09619, 33-1106 limits assumed: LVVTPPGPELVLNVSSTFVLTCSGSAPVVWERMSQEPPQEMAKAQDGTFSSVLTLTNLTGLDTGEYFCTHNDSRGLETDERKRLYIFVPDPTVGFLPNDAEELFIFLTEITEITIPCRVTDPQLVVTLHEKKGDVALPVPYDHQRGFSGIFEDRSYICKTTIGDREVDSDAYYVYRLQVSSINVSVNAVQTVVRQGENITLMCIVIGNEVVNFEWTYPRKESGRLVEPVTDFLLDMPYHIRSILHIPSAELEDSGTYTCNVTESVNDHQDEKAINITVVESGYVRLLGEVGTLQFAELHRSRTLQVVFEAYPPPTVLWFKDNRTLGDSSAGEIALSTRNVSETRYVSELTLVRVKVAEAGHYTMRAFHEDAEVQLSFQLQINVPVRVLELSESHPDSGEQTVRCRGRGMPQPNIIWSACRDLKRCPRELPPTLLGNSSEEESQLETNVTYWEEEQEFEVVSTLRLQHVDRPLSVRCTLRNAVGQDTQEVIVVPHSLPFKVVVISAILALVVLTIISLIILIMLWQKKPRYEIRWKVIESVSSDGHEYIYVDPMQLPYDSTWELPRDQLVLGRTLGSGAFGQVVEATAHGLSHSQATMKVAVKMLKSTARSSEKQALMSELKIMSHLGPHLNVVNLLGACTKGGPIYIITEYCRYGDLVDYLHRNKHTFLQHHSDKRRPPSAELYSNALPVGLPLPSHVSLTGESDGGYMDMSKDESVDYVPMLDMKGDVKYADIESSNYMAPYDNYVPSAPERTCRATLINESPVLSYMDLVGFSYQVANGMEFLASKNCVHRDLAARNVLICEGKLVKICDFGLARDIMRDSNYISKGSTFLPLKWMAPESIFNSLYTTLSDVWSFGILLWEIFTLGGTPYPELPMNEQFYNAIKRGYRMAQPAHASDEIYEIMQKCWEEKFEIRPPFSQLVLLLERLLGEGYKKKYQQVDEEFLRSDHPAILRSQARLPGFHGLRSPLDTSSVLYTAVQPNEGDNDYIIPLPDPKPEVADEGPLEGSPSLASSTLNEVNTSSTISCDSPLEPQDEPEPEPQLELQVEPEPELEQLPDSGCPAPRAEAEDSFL

According to patent publication US10537561B2 (Novartis AG, priority 2011, dated 2020):

Assays:
[1] = molecular target: CSF-1R (Homo sapiens, UniProt P07333); assay: CSF-1R inhibition, biochemical assay; details: read-out: CSF-1R IC-50
[2] = molecular target: PDGFR-β (Homo sapiens, UniProt P09619); assay: PDGFR-β inhibition; format: biochemical; details: read-out: PDGFR-β IC-50

Q: What does the source list for `Cn1cc(-c2cc(Oc3ccc4nc(N[C@H]5CCCC[C@H]5O)sc4c3)ccn2)cn1`?
A: IC50 [1]: 2 nM; IC50 [2]: 630 nM
